Data set [1] deals with APP/PS1 transgenic mice. Put plainly: ELISA for Aβ40 and Aβ42 in brain of APP/PS1 mice given V24P(10-40)-PEI. The format is in vivo, mouse. As to the method: (§1) APP/PS1 transgenic mice (B6C3-Tg (APPswe,PSEN1dE9) 85Dbo/Mmjax), purchased from Jackson Laboratories (USA), were bred and genotyped as described on the Jackson website. Jankowsky et al., Biomol Eng (2001) 17:157-65; Borchelt et al., Neuron (1996) 17:1005-13. The mice had access to food and water ad libitum and were kept on a 12:12 h light-dark cycle. PEI and V24P(10-40)-PEI were dissolved at a concentration of 400 μM in 100 mM NaH2PO4, 138 mM KCl, pH 5, and 4-month-old mice was given 2.5 μL of PEI (as the control) or V24P(10-40)-PEI in each nostril six days per week for the indicated period.
Briefly, the cortical or hippocampal tissue from PEI-treated or V24P(10-40)-PEI-treated APP/PS1 mice was weighed and homogenized at 4° C. in the cell extraction buffer provided in the kit, supplemented with protease inhibitor cocktail (Sigma, St. Louis, USA), then the homogenates in Eppendorf tubes were centrifuged at 13000 rpm at 4° C. for 10 min and the concentration of protein in the supernatant was measured using the microBCA protein assay (Thermo, IL, USA).
In this study, PEI was added to the C-terminus of the scavenger peptide V24P(10-40). 4-month-old APP/PS1 transgenic mice were administered with V24P(10-40)-PEI or PEI alone by nasal drops to both nostrils (1 nmole or 4 μg per nostril) six times per week. The mice were then sacrificed 4 months later and the A β contents of the brain were analyzed by ELISA.
(ELISA stands for enzyme-linked immunosorbent assay.)

Data set [2] relates to APP/PS1 transgenic mice. The data set is described as follows: [11C]PiB microPET of APP/PS1 mice given V24P(10-40)-PEI. The format is in vivo, mouse. How it is done: as §1
[^11C] […]
All imaging data were processed and analyzed using the PMOD 3.5 software package (Pmod Technologies, Zürich, Switzerland). The PET image dataset was converted to an absolute measure of radioactivity concentration (kBq/cc) using a phantom-derived calibration factor before being normalized to the injected dose of [^11C] […] PiB uptake in the cortex, hippocampus, amygdala, and olfactory bulb was evaluated. […]
The effect of the scavenger peptide on reducing amyloid plaque accumulation was examined in APP/PS1 mice treated with V24P(10-40)-PEI or PEI from the age of 4 months to 12 months, using micro positron emission tomography (microPET) with the radiotracer ^11C-labeled Pittsburgh compound B ([^11C] PiB), which binds to A β plaques. […] Quantification of [^11C]

Setting [3] is: intranasal 6 times a week for 4 months, 4-m to 8-m, ELISA.
[4] abbreviates: intranasal, four months, 4 to 8 months of age.

Marks after values point to notes of the source that are not given here.

In the case of “YEVHHQKLVFFAED^DPGSNKGAIIGLMVGGVV-PEI (PEI conjugate; D-proline) [V24P(10-40)-PEI]”, in the data set on APP/PS1 transgenic mice [1] (setting [3]), the “Aβ in hippocampus (% of control): Aβ40” value is listed as “Aβ40 28%^b % of control” and the “Aβ in hippocampus (% of control): Aβ42” value is “Aβ42 60% of control”. Further, in the data set on APP/PS1 transgenic mice [1] (intranasal, four months), the “reduction of Aβ40 in the cortex” value is 87% and the “reduction of Aβ42 in the cortex” value is 32%. In the data set with APP/PS1 transgenic mice [1] (setting [4]), the “reduction of Aβ40 in the hippocampus” value came out at 72% and the “reduction of Aβ42 in the hippocampus” value is 40%. In the data set on APP/PS1 transgenic mice [2] (cortex, hippocampus, amygdala, olfactory bulb, treated 4 to 12 months of age), the “[11C]PiB levels / amyloid plaque formation” value is reported as “significant reduction in amyloid plaque formation”. Besides, the “Aβ in hippocampus (% of control)” value with APP/PS1 transgenic mice [2] (intranasal 6 times a week for 8 months, 4-m to 12-m, microPET) was 81%^c % of control.

These data come from patent publication US12590130B2, “Bipartite molecules and uses thereof in treating diseases associated with abnormal protein aggregates” (ACADEMIA SINICA, priority 2014, dated 2026).
